Binding of CDR-mutated scFvs to a peptide of the spike HR2 region

The target is the same throughout: PDVDLGDISGINAS, from the HR2 region of SARS-CoV-2 spike.

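The starting antibody came from a phage panning campaign against this peptide. These sequences belong to a second round, designed from the earlier measurements on random variants of the parent. Their group label is 14L_GP_HC (GP: Gaussian process model; HC: hill climbing; a sequence that several methods proposed may carry one label only). The assay is AlphaSeq: two haploid yeast populations carry antibody and antigen on their surface. After mating in shaken culture at 30 °C for 16 h, diploids were selected and their barcode pairs sequenced. Each replicate has its own calibration line, from reference interactions of the BCL2 family. The assay was run in six technical replicates.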

Parent scFv Ab-14: VH joined to VL by three GGGGS repeats. Changes lie in the light chain CDRs alone.
VH: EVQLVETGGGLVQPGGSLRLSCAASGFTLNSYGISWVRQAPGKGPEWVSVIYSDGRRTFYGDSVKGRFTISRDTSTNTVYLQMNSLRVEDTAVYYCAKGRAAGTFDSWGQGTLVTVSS
VL: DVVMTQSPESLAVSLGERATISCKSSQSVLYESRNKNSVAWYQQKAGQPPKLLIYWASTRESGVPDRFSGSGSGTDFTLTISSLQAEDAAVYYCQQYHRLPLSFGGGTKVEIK

The parent's light chain CDRs are KSSQSVLYESRNKNSVA, WASTRES, QQYHRLPLS; each variant's own CDRs replace them letter for letter. Scale: log10 of Kd in nM, estimated from mating counts; low values are strong binders. A mean of the replicates is given; it leaves out those without a signal. An entry "n.d." has no value in the source: the pair was not observed among the diploids in that replicate. This suggests poor binding but is not conclusive. Empty control strains, which show no peptide, gave a signal in 4% of pairings with all light chain designs; the median was 2.64 and 95% of these signals were weaker than 1.59. No background was subtracted. For each scFv, signals with the empty controls are counted beside the result, with their mean in brackets. In the paper, a design with two or fewer of six values counts as a poor binder. The range of this assay differs from that of the first round, and the authors advise against merging the two. Of ten entries with the parent sequence, four were seen in most replicates (averages 0.34 to 2.37), three in one and three in none, so single entries are noisy.

CDR-L1,CDR-L2,CDR-L3,log10 Kd (nM) by replicate,"mean, log10 nM",signal with controls
HLSQVVLYESRNKNSVA,NASTRES,GQYHRLPLS,1.25 / 1.66 / n.d. / n.d. / 4.33 / 1.78,2.26,0/18
KLEQSIQYESRNKNSVA,NASTRES,QQYHRLPLS,-0.02 / -0.08 / -0.20 / -0.11 / -0.19 / 0.05,-0.09,2/18 (2.86)
KMSQSVLMEHRNKNSVA,DASLRES,QQYHRLPLS,0.10 / -0.25 / -0.20 / -0.42 / -0.21 / 0.04,-0.16,0/18
KSSISCLYESENKNSVA,EASQRES,QQYHRLPLS,1.14 / 1.22 / 0.42 / 0.78 / 0.74 / 1.19,0.91,2/18 (2.68)
KSSLSYLEESRNKNSVA,EASTRES,QQYHRLPLS,0.26 / -0.04 / 0.10 / -0.14 / -0.03 / 0.17,0.06,0/18
KISQSWLYEDRVKNSVA,GAQTRES,QQYHRLPLS,0.72 / 0.17 / 0.34 / 0.82 / 0.14 / 0.44,0.44,1/18 (2.32)
KSSQSVLNESRNKASVA,DASTRES,QQYHRLPLS,-0.07 / -0.12 / -0.13 / -0.43 / -0.33 / -0.13,-0.20,0/18
KLRQSQLYESRNKNSVA,NASTRLS,QQYHRLPLS,2.25 / 2.23 / 2.02 / 1.89 / 1.53 / 1.68,1.93,0/18
KLCQSELYESRNKNSVA,HASTRED,QQYHRLPLS,-0.02 / -0.22 / -0.27 / -0.29 / -0.27 / -0.22,-0.22,0/18
KVLQSVLYEGRNKNSVA,NASTRED,QQYHRLPLS,0.57 / 0.45 / 0.58 / 0.38 / 0.48 / 0.45,0.49,0/18
KFSQKVLYEHRTQNSVA,NASTRES,QQYHRLPLS,-0.19 / -0.27 / -0.42 / -0.32 / -0.43 / -0.39,-0.34,0/18
KVSQSVLYESGTKNSVA,NASWRES,QQYHRLPLS,0.30 / 0.08 / 0.12 / -0.02 / 0.23 / 0.20,0.15,0/18
KSSMSWLYEDRVKNSVA,GASTRES,QQYHRLPLS,0.23 / 0.06 / -0.17 / -0.17 / 0.43 / 0.23,0.10,1/18 (3.76)
KQSQEKMYESRNKNSVA,DASTRES,QQYHRLPLS,-0.27 / -0.10 / -0.45 / -0.53 / -0.45 / -0.22,-0.34,1/18 (2.11)
KLEQSNNYESRNKNSVA,NASTRES,QQYHRLPLS,0.02 / -0.10 / -0.15 / -0.22 / -0.17 / -0.05,-0.11,0/18
KSPQGVLYESRNKNSVA,GASVRES,QQYHRLPLS,-0.17 / -0.28 / -0.14 / -0.05 / -0.23 / -0.12,-0.17,0/18
KISISYLGEKRNKNSVA,EASTRES,QQYHRLPLS,0.65 / 0.86 / 0.48 / 0.65 / 0.54 / 0.68,0.64,1/18 (3.57)
KLMQSVLYESRNKNSVA,NASLRED,QQYHRLPLS,0.44 / 0.22 / 0.13 / -0.04 / 0.26 / 0.24,0.21,1/18 (2.65)
KSPQSVLYESRNKNSVA,HASTRED,QLYHRLPLS,1.32 / 0.48 / 0.37 / 0.74 / 0.79 / 1.28,0.83,2/18 (2.34)
KSSISYLYESRNMNSVA,EASTREQ,QQYHRLPLS,0.13 / -0.28 / -0.11 / -0.38 / -0.15 / -0.07,-0.14,1/18 (1.49)
KLRQSTLYESRNKNSVA,SASTRLS,QQYHRLPLS,0.54 / 0.96 / 1.32 / 0.84 / 1.19 / 1.73,1.10,0/18
SFSQSVLYEDRTKNSVA,NASTRES,QQYHRLPLS,n.d. / n.d. / n.d. / n.d. / n.d. / n.d.,n.d.,0/18
KSSISWLGEKRNKNSVA,EASTRES,QQYHRLPLS,0.18 / 0.11 / 0.14 / -0.29 / -0.04 / 0.02,0.02,0/18
KSSQVYYYESRNKNSVA,GASTRES,QQYHRLPLS,0.22 / 0.15 / -0.12 / 0.00 / -0.07 / 0.03,0.04,0/18
KLPQSTLYESRNPNSVA,NASTRES,QQYHRLPLS,-0.04 / -0.30 / -0.29 / -0.43 / -0.41 / -0.27,-0.29,4/18 (3.32)
KQSQSDLYESRNKNSVA,NASTRES,QQYHRLPLS,0.34 / -0.09 / 0.03 / 0.04 / 0.02 / 0.37,0.12,0/18
KMEQGVWYESRNKGSVA,GASVRES,QQYHRLPLS,0.06 / 0.13 / 0.09 / 0.01 / 0.15 / 0.02,0.08,1/18 (1.52)
KWSWSVLFESRNKNSVA,DASTRES,QQYHRLPLS,-0.22 / -0.14 / -0.15 / -0.30 / -0.19 / -0.08,-0.18,0/18
KLSQSWLYEDRVKNSVA,GASTRES,QQYHRLPLS,0.38 / -0.13 / 0.15 / 0.10 / 0.10 / 0.09,0.11,0/18
KSMWSVLYESNNKNSVA,HASTRED,QQYHRLPLS,0.06 / 0.28 / 0.28 / 0.21 / 0.09 / 0.37,0.22,2/18 (2.15)
KSSFSGLYESRNKNSVA,EASTRES,QQYHRLPLS,0.23 / -0.06 / -0.14 / -0.21 / -0.02 / -0.30,-0.08,3/18 (2.40)
KFSKSVLFESRNKNSVA,NASTRES,QQYHRLPLS,-0.21 / -0.16 / -0.73 / -0.25 / -0.33 / -0.47,-0.36,0/18
KSYQGVLYESRNKNSVA,GASQRES,QQYHRLPLS,-0.14 / -0.36 / -0.12 / -0.28 / -0.29 / -0.04,-0.20,1/18 (2.31)
KMSLSVLFESRNKNSVA,NASTRES,QQYHRLPLS,0.45 / 0.55 / 0.12 / 0.04 / 1.02 / 0.30,0.41,0/18
KISQSVLFQSRNKNSVA,DASTRES,QQYHRLPLS,-0.08 / -0.25 / -0.30 / -0.33 / -0.28 / -0.12,-0.23,2/18 (2.77)
KSPQSQLYESRNKNSVA,NASTRED,QQYHRLPLS,-0.01 / -0.16 / -0.01 / -0.17 / 0.08 / 0.33,0.01,1/18 (3.29)
HSSPSVLYESRNKNSVA,NASTREE,QDYHRLPLS,0.05 / 0.00 / -0.20 / -0.17 / -0.15 / 0.00,-0.08,1/18 (3.55)
KSSQSWLYEDRVKNSVA,GASTRLS,QQYHRLPLS,0.23 / 0.01 / 0.17 / -0.25 / 0.08 / 0.28,0.09,1/18 (3.28)
KLRQSTLYESRNKNSVA,HASTRES,QQYHRLPLS,0.59 / 0.49 / 0.41 / 0.18 / 0.19 / 0.41,0.38,0/18
KLRQSTLYESRNKNSVA,NASTRES,QQWHRLPLS,n.d. / n.d. / n.d. / n.d. / n.d. / n.d.,n.d.,0/18
KCSWSVLFESRNKNSVA,DASTRSS,QQYHRLPLS,0.10 / 0.06 / 0.04 / 0.05 / 0.11 / 0.26,0.11,1/18 (2.75)
KSSPSYLYESRNTNSVA,EASTRES,QQYHRLPLS,0.34 / 0.07 / 0.09 / 0.18 / 0.02 / 0.14,0.14,2/18 (2.22)
KQSQSVLAESRNKNSVA,MASTRES,QQYHRLPLS,0.86 / 0.58 / 0.66 / 0.27 / 0.54 / 0.51,0.57,0/18
KFSQWVLYESRHKNSVA,NASTRES,QQYHRLPLS,1.23 / 1.72 / 1.64 / 0.60 / 0.59 / 1.49,1.21,2/18 (2.46)
YSSISYLGESRNKNSVA,EASTRES,QQYHRLPLS,0.54 / 0.14 / 0.05 / 0.37 / 0.15 / -0.16,0.18,0/18
KVSQSELYESGTKNSVA,NASSRES,QQYHRLPLS,0.18 / 0.00 / -0.29 / -0.13 / 0.34 / 0.20,0.05,1/18 (3.42)
KLRQSTLYESRNPNSVA,SASTRES,QQYHRLPLS,0.45 / 0.00 / -0.30 / -0.60 / -0.02 / 0.17,-0.05,0/18
KQSQEYLYESRNKNSVA,DASTRES,QQYHRLPLS,0.25 / 0.28 / -0.02 / 0.24 / 0.03 / 0.55,0.22,0/18
KSDISYLEESRNKNSVA,EASTRES,QQYHRLPLS,0.77 / 0.51 / 0.17 / -0.02 / 0.18 / 0.43,0.34,0/18
KLSQSDLYESRWKNSVA,GASQRES,QQYHRLPLS,0.28 / 0.33 / 0.09 / 0.10 / 0.28 / 0.30,0.23,1/18 (2.33)
KLSQSVLNESRNKNSVA,DASTRES,QQYHRLPLS,-0.14 / -0.22 / -0.40 / -0.21 / -0.23 / -0.11,-0.22,2/18 (2.53)

Repeated from above, the 7 best binders with a signal in all replicates:

CDR-L1,CDR-L2,CDR-L3,log10 Kd (nM) by replicate,"mean, log10 nM",signal with controls
KFSKSVLFESRNKNSVA,NASTRES,QQYHRLPLS,-0.21 / -0.16 / -0.73 / -0.25 / -0.33 / -0.47,-0.36,0/18
KQSQEKMYESRNKNSVA,DASTRES,QQYHRLPLS,-0.27 / -0.10 / -0.45 / -0.53 / -0.45 / -0.22,-0.34,1/18 (2.11)
KFSQKVLYEHRTQNSVA,NASTRES,QQYHRLPLS,-0.19 / -0.27 / -0.42 / -0.32 / -0.43 / -0.39,-0.34,0/18
KLPQSTLYESRNPNSVA,NASTRES,QQYHRLPLS,-0.04 / -0.30 / -0.29 / -0.43 / -0.41 / -0.27,-0.29,4/18 (3.32)
KISQSVLFQSRNKNSVA,DASTRES,QQYHRLPLS,-0.08 / -0.25 / -0.30 / -0.33 / -0.28 / -0.12,-0.23,2/18 (2.77)
KLSQSVLNESRNKNSVA,DASTRES,QQYHRLPLS,-0.14 / -0.22 / -0.40 / -0.21 / -0.23 / -0.11,-0.22,2/18 (2.53)
KLCQSELYESRNKNSVA,HASTRED,QQYHRLPLS,-0.02 / -0.22 / -0.27 / -0.29 / -0.27 / -0.22,-0.22,0/18

The measurements come from Li et al. 2023 (doi:10.1038/s41467-023-39022-2) through the FLAb antibody collection.